# Values quoted from earlier work as cited in US20230349886A1, “SYSTEMS AND METHODS FOR PREDICTING CARDIOTOXICITY OF MOLECULAR PARAMETERS OF A COMPOUND BASED ON MACHINE LEARNING ALGORITHMS” (UTI Limited Partnership, priority 2015, published 2023).
# By UniProt entry, the sequences of proteins in these tests, tags left out. Where a name states a change or a piece, a line headed by the entry shows the natural chain unless it says otherwise. Residues count along the entry.
# UniProt Q12809: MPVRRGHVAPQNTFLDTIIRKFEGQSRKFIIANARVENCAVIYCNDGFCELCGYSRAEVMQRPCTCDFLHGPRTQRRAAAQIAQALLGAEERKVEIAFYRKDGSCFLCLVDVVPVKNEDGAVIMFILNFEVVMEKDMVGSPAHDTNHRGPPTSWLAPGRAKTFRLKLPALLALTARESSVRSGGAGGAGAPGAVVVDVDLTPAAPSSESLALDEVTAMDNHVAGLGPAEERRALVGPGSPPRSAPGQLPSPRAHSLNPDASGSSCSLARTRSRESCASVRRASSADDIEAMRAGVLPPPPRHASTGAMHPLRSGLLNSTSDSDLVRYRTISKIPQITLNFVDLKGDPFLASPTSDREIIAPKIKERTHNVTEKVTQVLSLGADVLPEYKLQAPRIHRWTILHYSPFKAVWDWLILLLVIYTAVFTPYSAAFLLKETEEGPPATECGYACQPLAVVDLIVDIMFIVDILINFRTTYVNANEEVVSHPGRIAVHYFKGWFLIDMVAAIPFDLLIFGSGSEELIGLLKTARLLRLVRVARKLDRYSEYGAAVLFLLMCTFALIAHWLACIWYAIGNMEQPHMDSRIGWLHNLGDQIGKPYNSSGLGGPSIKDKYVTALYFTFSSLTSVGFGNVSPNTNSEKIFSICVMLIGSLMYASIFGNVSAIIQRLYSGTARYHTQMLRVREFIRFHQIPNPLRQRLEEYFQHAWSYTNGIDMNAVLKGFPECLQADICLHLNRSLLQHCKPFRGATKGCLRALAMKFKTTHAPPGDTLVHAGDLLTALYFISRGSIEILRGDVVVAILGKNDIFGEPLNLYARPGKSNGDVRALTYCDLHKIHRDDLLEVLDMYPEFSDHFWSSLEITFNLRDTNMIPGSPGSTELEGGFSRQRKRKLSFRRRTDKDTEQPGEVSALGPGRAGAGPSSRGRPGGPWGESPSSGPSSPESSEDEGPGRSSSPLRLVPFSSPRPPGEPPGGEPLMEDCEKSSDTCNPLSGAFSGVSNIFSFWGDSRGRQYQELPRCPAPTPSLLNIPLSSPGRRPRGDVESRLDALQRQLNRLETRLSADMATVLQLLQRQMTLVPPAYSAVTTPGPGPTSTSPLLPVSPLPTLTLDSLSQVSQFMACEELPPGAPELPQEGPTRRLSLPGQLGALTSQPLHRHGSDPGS
# UniProt Q13936, 1-2138 isoform Q13936-12: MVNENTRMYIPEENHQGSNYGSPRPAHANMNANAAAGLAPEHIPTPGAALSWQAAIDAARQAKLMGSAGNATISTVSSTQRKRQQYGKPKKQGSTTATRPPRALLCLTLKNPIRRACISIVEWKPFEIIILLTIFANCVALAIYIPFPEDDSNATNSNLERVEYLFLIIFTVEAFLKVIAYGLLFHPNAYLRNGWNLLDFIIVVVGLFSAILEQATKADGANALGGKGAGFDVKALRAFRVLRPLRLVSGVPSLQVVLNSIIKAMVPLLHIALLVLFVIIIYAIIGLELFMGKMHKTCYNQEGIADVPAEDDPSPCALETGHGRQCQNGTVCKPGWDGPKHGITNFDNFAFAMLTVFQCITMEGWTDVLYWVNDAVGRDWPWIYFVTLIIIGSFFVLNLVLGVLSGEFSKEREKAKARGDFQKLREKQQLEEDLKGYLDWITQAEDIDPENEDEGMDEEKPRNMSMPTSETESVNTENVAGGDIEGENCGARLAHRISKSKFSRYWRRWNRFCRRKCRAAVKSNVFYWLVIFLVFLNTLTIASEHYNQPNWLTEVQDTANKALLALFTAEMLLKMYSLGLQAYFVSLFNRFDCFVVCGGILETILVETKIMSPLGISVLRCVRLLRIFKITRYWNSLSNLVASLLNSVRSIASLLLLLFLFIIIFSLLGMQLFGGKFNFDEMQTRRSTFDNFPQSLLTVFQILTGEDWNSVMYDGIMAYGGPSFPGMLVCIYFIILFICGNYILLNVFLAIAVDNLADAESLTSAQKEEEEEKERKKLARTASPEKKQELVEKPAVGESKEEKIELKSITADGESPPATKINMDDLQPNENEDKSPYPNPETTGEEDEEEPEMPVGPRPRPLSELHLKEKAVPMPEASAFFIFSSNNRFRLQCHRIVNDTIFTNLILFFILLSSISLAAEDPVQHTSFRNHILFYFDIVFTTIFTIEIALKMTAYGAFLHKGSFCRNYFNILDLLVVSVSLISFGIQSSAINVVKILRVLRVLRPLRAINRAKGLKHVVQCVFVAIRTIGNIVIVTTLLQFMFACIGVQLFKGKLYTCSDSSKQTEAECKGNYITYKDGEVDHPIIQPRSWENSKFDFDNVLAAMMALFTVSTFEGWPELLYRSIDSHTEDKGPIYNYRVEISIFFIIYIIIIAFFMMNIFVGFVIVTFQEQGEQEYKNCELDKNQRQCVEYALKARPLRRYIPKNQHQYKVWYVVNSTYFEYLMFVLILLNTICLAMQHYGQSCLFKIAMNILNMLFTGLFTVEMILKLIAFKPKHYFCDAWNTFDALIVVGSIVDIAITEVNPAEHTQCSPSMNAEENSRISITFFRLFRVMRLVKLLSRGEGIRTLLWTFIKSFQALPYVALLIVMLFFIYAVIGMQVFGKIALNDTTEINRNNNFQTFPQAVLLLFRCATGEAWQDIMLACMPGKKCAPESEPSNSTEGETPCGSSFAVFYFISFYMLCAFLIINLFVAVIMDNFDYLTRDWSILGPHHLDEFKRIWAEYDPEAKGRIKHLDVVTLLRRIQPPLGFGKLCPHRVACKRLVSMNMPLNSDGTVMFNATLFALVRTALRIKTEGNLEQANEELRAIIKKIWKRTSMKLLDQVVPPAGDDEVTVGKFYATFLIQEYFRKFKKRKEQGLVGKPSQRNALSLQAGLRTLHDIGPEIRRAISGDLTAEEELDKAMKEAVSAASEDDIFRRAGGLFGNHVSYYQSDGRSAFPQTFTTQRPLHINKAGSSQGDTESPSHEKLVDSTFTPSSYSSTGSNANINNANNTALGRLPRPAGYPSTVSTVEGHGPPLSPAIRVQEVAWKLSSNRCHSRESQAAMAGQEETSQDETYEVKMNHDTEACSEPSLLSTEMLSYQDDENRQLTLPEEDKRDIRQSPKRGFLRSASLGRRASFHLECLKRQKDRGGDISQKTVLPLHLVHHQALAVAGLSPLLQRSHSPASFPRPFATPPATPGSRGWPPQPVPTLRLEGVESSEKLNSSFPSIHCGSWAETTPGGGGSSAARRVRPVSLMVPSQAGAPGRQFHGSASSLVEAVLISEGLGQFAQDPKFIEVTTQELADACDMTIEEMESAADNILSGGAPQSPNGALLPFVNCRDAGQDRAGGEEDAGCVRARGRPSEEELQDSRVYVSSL
# UniProt Q14524, 1-2016 isoform Q14524-4 V215L/S234P: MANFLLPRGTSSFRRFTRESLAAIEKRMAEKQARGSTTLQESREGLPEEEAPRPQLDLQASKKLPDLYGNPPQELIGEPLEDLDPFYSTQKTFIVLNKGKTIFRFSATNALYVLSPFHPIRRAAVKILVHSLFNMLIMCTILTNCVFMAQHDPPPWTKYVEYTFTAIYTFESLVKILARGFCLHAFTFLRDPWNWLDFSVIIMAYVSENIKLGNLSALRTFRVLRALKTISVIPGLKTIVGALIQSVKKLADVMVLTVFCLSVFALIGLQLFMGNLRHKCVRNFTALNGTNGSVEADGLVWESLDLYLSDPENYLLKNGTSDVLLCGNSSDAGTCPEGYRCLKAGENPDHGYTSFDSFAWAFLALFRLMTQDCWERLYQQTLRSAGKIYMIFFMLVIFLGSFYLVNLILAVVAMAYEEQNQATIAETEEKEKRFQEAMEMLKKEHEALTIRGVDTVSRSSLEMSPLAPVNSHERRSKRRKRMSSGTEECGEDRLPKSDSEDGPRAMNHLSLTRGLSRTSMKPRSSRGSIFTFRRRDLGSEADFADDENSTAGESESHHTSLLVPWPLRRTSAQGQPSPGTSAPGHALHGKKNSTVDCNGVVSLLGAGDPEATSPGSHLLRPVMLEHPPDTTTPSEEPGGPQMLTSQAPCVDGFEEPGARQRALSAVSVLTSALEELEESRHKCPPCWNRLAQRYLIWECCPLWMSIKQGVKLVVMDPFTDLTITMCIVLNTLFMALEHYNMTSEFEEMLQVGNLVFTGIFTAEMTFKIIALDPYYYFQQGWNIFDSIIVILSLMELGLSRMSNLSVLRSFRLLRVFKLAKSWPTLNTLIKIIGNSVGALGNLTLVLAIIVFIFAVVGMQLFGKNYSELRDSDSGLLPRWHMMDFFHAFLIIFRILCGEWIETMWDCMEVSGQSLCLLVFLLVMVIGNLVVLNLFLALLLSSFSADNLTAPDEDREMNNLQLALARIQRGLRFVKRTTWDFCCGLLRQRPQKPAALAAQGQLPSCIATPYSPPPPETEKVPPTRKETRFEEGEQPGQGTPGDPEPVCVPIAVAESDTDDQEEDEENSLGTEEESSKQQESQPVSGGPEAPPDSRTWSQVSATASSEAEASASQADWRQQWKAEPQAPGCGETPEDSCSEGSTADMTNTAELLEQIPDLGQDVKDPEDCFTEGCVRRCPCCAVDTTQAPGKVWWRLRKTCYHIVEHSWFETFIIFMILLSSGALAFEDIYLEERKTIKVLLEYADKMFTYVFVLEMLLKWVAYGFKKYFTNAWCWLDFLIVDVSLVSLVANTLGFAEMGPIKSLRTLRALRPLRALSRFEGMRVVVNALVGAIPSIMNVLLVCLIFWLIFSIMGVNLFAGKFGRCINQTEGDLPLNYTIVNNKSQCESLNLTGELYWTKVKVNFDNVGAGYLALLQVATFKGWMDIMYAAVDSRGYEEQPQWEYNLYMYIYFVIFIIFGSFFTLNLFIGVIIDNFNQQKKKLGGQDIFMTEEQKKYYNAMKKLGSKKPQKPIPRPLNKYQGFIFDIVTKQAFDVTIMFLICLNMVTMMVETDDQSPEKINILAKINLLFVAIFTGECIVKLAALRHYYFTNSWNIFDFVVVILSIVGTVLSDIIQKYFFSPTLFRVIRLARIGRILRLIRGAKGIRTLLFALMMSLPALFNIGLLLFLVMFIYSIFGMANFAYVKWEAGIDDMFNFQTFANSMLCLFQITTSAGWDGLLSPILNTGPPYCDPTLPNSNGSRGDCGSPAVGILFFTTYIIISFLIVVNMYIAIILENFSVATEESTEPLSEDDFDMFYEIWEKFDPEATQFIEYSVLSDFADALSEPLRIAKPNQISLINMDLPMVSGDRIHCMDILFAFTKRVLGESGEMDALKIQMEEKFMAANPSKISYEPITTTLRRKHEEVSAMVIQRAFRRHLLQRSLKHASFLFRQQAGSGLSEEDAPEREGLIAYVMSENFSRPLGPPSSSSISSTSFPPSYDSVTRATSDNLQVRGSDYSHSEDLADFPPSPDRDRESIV
# Columns and labels:
# hERG = hERG (Homo sapiens, UniProt Q12809)
# Cav1.2 = Cav1.2 (Homo sapiens, UniProt Q13936)
# Nav1.5 = Nav1.5 (Homo sapiens, UniProt Q14524); conditions: read-out: NAV1.5 IC50; Brown dataset
# [1] = Brown dataset; negative log of free drug concentration
# [2] = read-out: CAV1.2 IC50, Brown dataset
structure (smiles),measurement,setting,value
O=C1NC(=O)C(c2ccccc2)(c2ccccc2)N1 [phenytoin],HERG pIC50,hERG,3.833 665
same,IC50,hERG,147 µM
same,pIC50,hERG,3.833
CC(C)COCC(CN(Cc1ccccc1)c1ccccc1)N1CCCC1 (stereo not shown) [bepridil],CAV1.2 pIC50,Cav1.2; Brown dataset,6
same,CAV1p2-pIC50,"Cav1.2; experimental data, Kramer et al. 2013",6
same,IC50,"Cav1.2; read-out: CAV1p2-IC50, experimental data, Kramer et al. 2013",1 µM
same,IC50,Cav1.2; [2],1 µM
CCN(CC)CCNC(=O)c1c(C)[nH]c(/C=C2\C(=O)Nc3ccc(F)cc32)c1C [sunitinib],IC50,Nav1.5,16.5 µM
Cc1nc(Nc2ncc(C(=O)Nc3c(C)cccc3Cl)s2)cc(N2CCN(CCO)CC2)n1 [dasatinib],IC50,Cav1.2; [2],81.1 µM
same,IC50,Nav1.5,76.3 µM
N[C@@H](CC(=O)N1CCn2c(nnc2C(F)(F)F)C1)Cc1cc(F)c(F)cc1F [sitagliptin],pIC50,"hERG; Table 11, calculated from HERG-IC50 of the Kramer et al. 2013 data",3.758
same,IC50,"hERG; read-out: HERG IC50, Brown dataset",175 µM
Cc1nc2n(c(=O)c1CCN1CCC(c3noc4cc(F)ccc34)CC1)CCCC2 [risperidone],pFD,[1],8.6989

# Where two headings read alike, the source gives them in different places.
